The target of assay [1] is Histamine H2 receptor (Cavia porcellus) (UniProt P47747). The assay is described as follows: Agonistic activity against histamine H2 receptor in guinea pig atrium (potency relative to histamine =1). Format: functional, tissue-based. The settings on record: Cardiac atrium. An outline of the steps:
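Isolated guinea pig atrium, muscle under 400-mg tension, propranolol (0.5 μM) present. Agonist tested up to 781 μM (0.1% histamine) by cumulative dose-response curves. Potency relative to histamine taken from concentrations giving 50% of maximal response; selected compounds by 2 + 2 Latin square parallel-line assay against histamine.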

Sequences of proteins named here, by UniProt entry; tags and fusion partners are left off.
UniProt P47747, whole entry, looked up: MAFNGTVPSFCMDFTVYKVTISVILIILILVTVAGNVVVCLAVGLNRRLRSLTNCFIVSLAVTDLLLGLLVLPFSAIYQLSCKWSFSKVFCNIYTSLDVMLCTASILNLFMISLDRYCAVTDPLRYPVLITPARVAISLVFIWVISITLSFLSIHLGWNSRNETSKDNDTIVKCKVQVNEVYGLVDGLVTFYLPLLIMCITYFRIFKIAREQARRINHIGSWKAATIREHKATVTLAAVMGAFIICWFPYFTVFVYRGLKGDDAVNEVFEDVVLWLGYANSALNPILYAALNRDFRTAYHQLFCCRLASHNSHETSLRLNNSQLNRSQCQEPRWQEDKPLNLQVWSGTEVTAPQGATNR

The target is the same in assay [2]. The assay is described as follows: Percent maximum response against histamine H2 receptor in guinea pig atrium was evaluated. The format is tissue-based. The note with it: Cardiac atrium. An outline of the steps:
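Isolated guinea pig atrium under 400-mg tension with propranolol (0.5 μM). Complete cumulative dose-response curves to histamine and test agonist, up to 781 μM, used to find the maximum response obtainable, expressed relative to histamine.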

The structures appear in SMILES notation.

From ChEMBL document CHEMBL1122944, “The histamine H2 receptor agonist impromidine: synthesis and structure-activity considerations” (J Med Chem, 1985) come the findings set out here.

Consider `Cc1[nH]cnc1CSCCSC(=N)NCCCc1c[nH]cn1`, for which, in assay [1], the Potency was 6.85. The compound further came in with a Max response in assay [2] of 83%.
